In ChEMBL document CHEMBL5107999, “Synthesis and biological evaluation of 4-hydroxy-methylpiperidinyl-N-benzyl-acylarylhydrazone hybrids designed as novel multifunctional drug candidates for Alzheimer's disease” (Bioorg Med Chem, 2022):

Experiment: Selectivity ratio, ratio of IC50 for equine serum BuChE to IC50 for Electrophorus electricus AchE

**Q.** Which Ratio IC50 does the source give for `COc1cc2c(cc1OC)C(=O)C(CC1CCN(Cc3ccccc3)CC1)C2` (stereo unspecified) here?
**A.** 180
